Binding of CDR-mutated scFvs to a peptide of the spike HR2 region

From the AlphaSeq antibody data of Li et al. 2023 (doi:10.1038/s41467-023-39022-2), copy in the FLAb collection.

Target peptide (SARS-CoV-2 spike, HR2 region): PDVDLGDISGINAS

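The starting antibody came from a phage panning campaign against this peptide. Designed CDR sequences, proposed from the first random library and measured here. Their group label is 14H_Rand (Rand: our label for a block that the file lists under HC and that is probably the random mutants of the ten best first-round binders). AlphaSeq pools MATa yeast showing the antibodies with MATalpha yeast showing the peptide. Mating (16 h, 30 °C) was followed by selection of diploids and sequencing of their barcodes. Scores were corrected for input abundance and mapped to Kd with protein pairs of known affinity run in the same pool. The assay was run in six technical replicates.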

Ab-14 is the parent antibody, in scFv form: VH, then a (GGGGS)3 linker, then VL. The light chain is unchanged in all variants.
VH: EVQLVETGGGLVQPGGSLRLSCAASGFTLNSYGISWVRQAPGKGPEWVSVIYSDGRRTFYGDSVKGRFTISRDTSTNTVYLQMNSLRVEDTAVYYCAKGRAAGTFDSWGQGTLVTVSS
VL: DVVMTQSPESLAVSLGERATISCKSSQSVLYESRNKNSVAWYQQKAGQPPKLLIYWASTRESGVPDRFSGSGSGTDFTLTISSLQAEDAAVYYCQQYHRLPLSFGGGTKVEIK

Substitutions are numbered in sequence along the VH above, starting at 1 (not Kabat). Numbers give log10(Kd / nM), so 0 is 1 nM and 3 is 1 µM. Smaller is tighter. Where no diploid with the target was found in that replicate, the entry reads "nd": below detection, most likely a poor binder, though not proof of it.

changes,"replicates, log10 nM",control signals
S31D/D54W/G103L/D106I,nd / nd / nd / nd / nd / nd,0/18
N30Q/S53A/S63D/F105N/D106K,nd / nd / nd / nd / nd / nd,0/18
S31E/S35T/G103V/S107Q,nd / nd / nd / nd / nd / nd,0/18
S31E/R100Q/G103V/S107D,nd / nd / nd / nd / nd / nd,0/18
L29I/S31T/Y32L/S53H/G61D/S63F/G103V/S107Q,nd / nd / nd / nd / nd / nd,1/18 (2.92)
N30D/G99M/F105A/D106L,nd / nd / nd / nd / nd / nd,0/18
D54S/G61S/A102G,nd / 2.53 / nd / nd / 2.63 / nd,0/18
S31E/R56T/S63P/G103V/F105P/S107Q,nd / nd / nd / nd / nd / nd,0/18
T28D/A101P/T104W/D106N,nd / nd / nd / nd / nd / nd,1/18 (2.55)
S31D/Y52G/R57S/F59Q/Y60I/G61I,nd / nd / nd / nd / nd / nd,0/18
T28D/S31Q/S53E/T58E/G61S/T104F,nd / nd / nd / nd / nd / nd,0/18
S31D/G61Q/A102G,nd / 1.48 / nd / nd / 1.14 / 0.52,0/18
L29Y/S53A/F105N/D106K,nd / nd / nd / nd / nd / nd,0/18
S31Q/Y60K/G61S/A102M/T104F,nd / nd / nd / nd / nd / nd,0/18
N30D/F105A/D106L/S107Q,nd / nd / nd / nd / nd / nd,0/18
N30P/S31D/F59Q/G61I/A102K,nd / nd / nd / nd / nd / nd,1/18 (2.12)
S31E/I51Y/G103V/S107Q,nd / nd / nd / nd / nd / nd,0/18
T28D/D54A/R57D/Y60F/V64D/T104W/D106N,nd / nd / nd / nd / nd / nd,0/18
G61S/A102G/G103M,nd / nd / nd / 2.48 / nd / nd,0/18
S31D/F59Q/G61I/D62N/A101Y,nd / 1.48 / nd / nd / nd / nd,0/18
N30D/G99P/F105A/D106L,nd / nd / nd / nd / nd / nd,0/18
N30D/S31D/F105A/D106L,nd / nd / nd / nd / nd / 1.57,0/18
S31E/T58W/F59R/D62N/G103Y/D106M/S107T,nd / nd / nd / nd / nd / nd,0/18
S53A/F105A/D106K,-0.18 / 0.97 / 0.16 / 0.14 / -0.19 / -0.23,0/18
S31E/G61W/A101F/G103A,nd / nd / nd / nd / nd / nd,0/18
L29F/F59S/G61D/D62I/R100Q/A101L,nd / nd / nd / nd / nd / nd,0/18
T28D/A102T/T104W/D106N/S107Q,nd / nd / nd / nd / nd / nd,0/18
S31Q/G61S/V64G/A102E/T104F,nd / nd / nd / nd / nd / nd,0/18
N30D/F59Y/G103A/F105A/D106L,nd / nd / nd / nd / nd / nd,0/18
S31T/R56W/G61T/A101F/A102C,nd / nd / nd / nd / nd / nd,0/18
N30C/S31Q/D54I/R57Q/G61S/A102Y/G103S/T104F,nd / nd / nd / nd / nd / nd,0/18
S53A/G103Y/F105N/D106K,nd / nd / nd / nd / nd / nd,0/18
S31Q/I34W/I51Q/R56D/G61V/T104F,nd / nd / nd / nd / nd / nd,0/18
S31I/D54K/G103L/D106I,nd / nd / nd / nd / nd / nd,0/18
S31E/Y52R/G61T/A101F/D106S,nd / nd / nd / nd / nd / nd,0/18
S35Q/G61S/V64N/A102G,nd / nd / nd / nd / nd / nd,0/18

The closing 6 entries, repeated:

| changes | replicates, log10 nM | control signals |
|---|---|---|
| N30C/S31Q/D54I/R57Q/G61S/A102Y/G103S/T104F | nd / nd / nd / nd / nd / nd | 0/18 |
| S53A/G103Y/F105N/D106K | nd / nd / nd / nd / nd / nd | 0/18 |
| S31Q/I34W/I51Q/R56D/G61V/T104F | nd / nd / nd / nd / nd / nd | 0/18 |
| S31I/D54K/G103L/D106I | nd / nd / nd / nd / nd / nd | 0/18 |
| S31E/Y52R/G61T/A101F/D106S | nd / nd / nd / nd / nd / nd | 0/18 |
| S35Q/G61S/V64N/A102G | nd / nd / nd / nd / nd / nd | 0/18 |

A sequence measured in both rounds can read differently, since the two assays cover different ranges. The authors averaged sequences with at least three values out of six and counted those with two or fewer as poor binders. Empty control strains, which show no peptide, gave a signal in 1% of pairings with all heavy chain designs; the median was 2.08 and 95% of these signals were weaker than 0.84. No background was subtracted. Also given: how often the same scFv was detected with the empty control strains, with their mean in brackets. Of ten entries with the parent sequence, four were seen in most replicates (averages 0.34 to 2.37), three in one and three in none, so single entries are noisy.